Patent US20250242340A1, “SABRE CATALYSTS CONTAINING FLUORINATED CARBON CHAINS FOR DELIVERY OF METAL-FREE MRI CONTRAST AGENTS” (The United States of America, as represented by the …, priority 2022, published 2025)

Conditions: 20 mM sodium [1-13C]pyruvate, 2.6 mM catalyst of Example 4, 40 mM DMSO, 0.4 μT, 0 °C, 110 PSI, 90 scc/m p-H2, 1.8 T NMR

CC(=O)C(=O)O [[1-^13C]pyruvate, Sodium [1-^13C]-pyruvate]
13C signal enhancement ε: ~86500 fold | P13C (13C polarization): ~13.48%
